According to US8247572B2, “Facilitated transport of bisphosphonates by vitamin C” (Duke University, priority 2005, dated 2012):

Tests used:
[1] = system: primary human chondrocytes; assay: Ascorbic acid transport assay in isolated primary human chondrocytes
Experimental: Ascorbic Acid Transport Assay in Isolated Primary Human Chondrocytes. AA transport was measured using a modified version of the uptake assay published by Wilson and Dixon (J. X. Wilson, S. J. Dixon, High-Affinity Sodium-Dependent Uptake of Ascorbic Acid by Rat Osteoblasts, J. Mem. Biol. 111 (1989) 83-91). Primary human chondrocytes were seeded at a density of 4.5×10^5 cells/well on a 6-well plate (or 2.25×10^5 cells/well on a 12-well plate for the kinetic experiments). Prior to the transport assay, cells were plated for 48 hours in DMEM/F12, containing 10% FCS but no AA. Cells were washed in transport buffer containing: 134 mM NaCl, 5.4 mM KCl, 1.8 mM CaCl2, 0.8 mM MgSO4, 10 mM D-glucose, 20 mM HEPES, pH 7.3 with NaOH. […] The standard AA transport assay conditions were 37° C./5% CO2 for 10 minutes. AA uptake was terminated by washing the cells four-times in ice-cold PBS. The cells were lysed with Puregene Cell Lysis Solution (Gentra Systems) and scintillation counting was performed in Uniscint BD (National Diagnostics).
In experiments with sodium free transport buffer, iso-osmotic concentrations of LiCl were substituted for NaCl. […]

[2] = system: human articular cartilage explants; settings: 21 hours

## L-[^14C]-ascorbic acid [L-^14C-Asc]
[1]; 134 mM Na+, 10 minutes, p<0.001
  L-14C-Asc transported in the presence versus absence of sodium: approximately 3 fold
[1]; in 10 minutes, 4° C. or absence of sodium
  passive diffusion of L-14C-Asc into human chondrocytes: about 45 μmol L-^14C-Asc/10^6 cells
[1]; in the presence of sodium, 10 minutes, p<0.001
  L-14C-Asc transported at 37° C. versus 4° C.: 3.8 fold
[2]; p=0.05
  L-14C-Asc in live explants versus dead explants: 2 fold
[2]; dead (freeze/thaw) explants, 50 μM L-14C-Asc
  L-14C-Asc content of dead explants: 7.77+/−3.03 pmol L-^14C-Asc/mg tissue
[2]; live explants, 50 μM L-14C-Asc
  L-14C-Asc content of whole live explants: 16.56+/−4.22 pmol L-^14C-Asc/mg tissue
